{"source": "paper PMC9704499", "about": "(European journal of medicinal chemistry, 2021)", "test_system": "Tau0N4R-TM-tGFP U2OS cells", "test": "Tau phosphorylation", "settings": "0.5–10 μM, 6 hrs"}
{"compound": "c1ccc(CNc2nc(Nc3cc(C4CC4)[nH]n3)c3sccc3n2)cc1", "note": "[Compound 4, N2-benzyl-N4-(5-cyclopropyl-1H-pyrazol-3-yl)thieno[3,2-d]pyrimidine-2,4-diamine]", "values": [{"measurement": "effect on bundle formation over concentration range", "result": "dose-dependent effect"}]}
